Among the data in US6936585B2, “Corticotropin releasing factor 2 receptor agonists” (priority 2002, dated 2005) are EC50 and Emax values, retold here.

For orientation: EC50 means the concentration giving half of the maximal effect. High values mean lower potency in that assay, low ones higher potency in that assay. One may read the Emax as the maximal effect, on the per cent scale that the assay sets.

For test [1], the target named is T1, CRF2R (Homo sapiens, UniProt Q13324).
T1 sequence (Q13324 1-411): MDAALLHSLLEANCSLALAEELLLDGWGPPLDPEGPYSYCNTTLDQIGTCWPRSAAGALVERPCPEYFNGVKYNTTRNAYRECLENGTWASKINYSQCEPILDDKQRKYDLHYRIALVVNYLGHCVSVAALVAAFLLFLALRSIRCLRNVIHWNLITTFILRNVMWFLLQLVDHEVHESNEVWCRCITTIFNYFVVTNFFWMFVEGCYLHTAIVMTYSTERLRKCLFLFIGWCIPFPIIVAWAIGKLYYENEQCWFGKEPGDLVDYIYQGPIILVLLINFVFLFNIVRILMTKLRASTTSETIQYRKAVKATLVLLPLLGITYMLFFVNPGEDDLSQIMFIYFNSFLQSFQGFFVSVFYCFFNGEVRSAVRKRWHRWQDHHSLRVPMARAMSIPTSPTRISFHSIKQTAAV
Description: CRF2R agonist activation (EC50 / Emax), called comparative CRF binding. In kind it is cell-based. The settings on record: for Emax: read-out: CRF2R Emax. The procedure, abridged:
(§1)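 Peptides are tested on cells bearing CRF1R or CRF2R, full length or as ligand-binding-domain constructs coupled to reporters or G proteins. Activation is scored by cAMP rise, measured in lysates or by CRE-reporter output, against vehicle control.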

For test [2], the target named is T2, CRF1R (Homo sapiens, UniProt P34998).
T2 sequence (P34998 24-415): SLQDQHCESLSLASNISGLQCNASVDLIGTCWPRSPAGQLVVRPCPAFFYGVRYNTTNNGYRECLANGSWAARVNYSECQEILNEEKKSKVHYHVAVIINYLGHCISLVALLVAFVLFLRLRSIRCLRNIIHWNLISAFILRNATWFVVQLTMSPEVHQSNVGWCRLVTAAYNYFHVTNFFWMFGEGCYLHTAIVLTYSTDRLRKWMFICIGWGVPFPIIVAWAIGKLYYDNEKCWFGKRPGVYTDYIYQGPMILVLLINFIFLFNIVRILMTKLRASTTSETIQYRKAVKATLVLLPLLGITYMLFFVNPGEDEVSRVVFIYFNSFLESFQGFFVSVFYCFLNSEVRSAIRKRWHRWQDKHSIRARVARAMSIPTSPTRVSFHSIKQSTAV
The experiment in a line: CRF1R agonist activation (EC50 / Emax), called comparative CRF binding. The test is classed as cell-based. The settings on record: for EC50: CRF1R EC50; for Emax: read-out: CRF1R Emax. Summed up: as §1

Bounds are passed on as bounds.

`CC[C@H](C)[C@H](NC(=O)[C@H](CCC(=O)O)NC(=O)[C@@H](NC(=O)[C@H](CCSC)NC(=O)[C@H](CCCCN)NC(=O)[C@H](CCCNC(=N)N)NC(=O)[C@H](CC(C)C)NC(=O)[C@H](CC(C)C)NC(=O)[C@H](CCC(N)=O)NC(=O)[C@H](Cc1ccccc1)NC(=O)[C@@H]1CCCN1C(=O)[C@H](CC(C)C)NC(=O)[C@H](CC(=O)O)NC(=O)[C@@H](NC(=O)[C@H](CO)NC(=O)[C@@H](NC(=O)[C@@H]1CCCN1C(=O)[C@@H]1CCCN1C(=O)CNC(=O)[C@@H]1CCC(=O)N1)[C@@H](C)CC)[C@@H](C)CC)[C@@H](C)CC)C(=O)N[C@@H](CCC(=O)O)C(=O)N[C@@H](CCCCN)C(=O)N[C@@H](CCC(N)=O)C(=O)N[C@@H](CCC(=O)O)C(=O)N[C@@H](CCCCN)C(=O)N[C@@H](CCC(=O)O)C(=O)N[C@@H](CCCCN)C(=O)N[C@@H](CCC(N)=O)C(=O)N[C@@H](CCC(N)=O)C(=O)N[C@@H](C)C(=O)N[C@H](C(=O)N[C@H](C(=O)N[C@@H](CC(N)=O)C(=O)N[C@@H](CCCNC(=N)N)C(=O)N[C@@H](CC(C)C)C(=O)N[C@@H](CC(C)C)C(=O)N[C@@H](CC(C)C)C(=O)N[C@@H](C)C(=O)N[C@@H](CCCNC(=N)N)C(=O)N[C@H](C(N)=O)C(C)C)[C@@H](C)O)[C@@H](C)O` [compound 19]: in test [1], the EC50 amounted to 7.42 nM and the Emax turned out to be 75%. Further, in test [2], the EC50 worked out at 232 nM and the maximal response (Emax) was 83%.
For `CC[C@H](C)[C@H](NC(=O)[C@@H](NC(=O)[C@H](CC(=O)O)NC(=O)[C@H](CC(C)C)NC(=O)[C@H](CC(C)C)NC(=O)[C@H](CC(C)C)NC(=O)[C@H](CCCNC(=N)N)NC(=O)[C@H](CC(N)=O)NC(=O)[C@H](CC(N)=O)NC(=O)[C@H](C)NC(=O)[C@H](C)NC(=O)[C@H](CCC(N)=O)NC(=O)[C@H](CCC(N)=O)NC(=O)[C@H](CCCCN)NC(=O)[C@H](CCC(=O)O)NC(=O)[C@H](CCCCN)NC(=O)[C@H](CCC(=O)O)NC(=O)[C@H](CCC(N)=O)NC(=O)[C@H](CCCCN)NC(=O)[C@H](CCC(=O)O)NC(=O)[C@@H](NC(=O)[C@H](CCC(=O)O)NC(=O)[C@@H](NC(=O)[C@H](CCSC)NC(=O)[C@H](CCCCN)NC(=O)[C@H](CCCNC(=N)N)NC(=O)[C@H](CC(C)C)NC(=O)[C@H](CC(C)C)NC(=O)[C@H](Cc1ccc(O)cc1)NC(=O)[C@@H](NC(=O)[C@@H]1CCCN1C(=O)[C@@H](NC(=O)[C@H](CC(=O)O)NC(=O)[C@@H](NC(=O)[C@H](CO)NC(=O)[C@@H](NC(=O)[C@@H]1CCCN1C(=O)[C@@H]1CCCN1C(=O)CNC(=O)[C@@H]1CCC(=O)N1)[C@@H](C)CC)[C@@H](C)CC)C(C)C)[C@@H](C)O)[C@@H](C)CC)[C@@H](C)CC)[C@@H](C)O)C(N)=O` [compound 253] the same measures were 41.8 nM, 86%, at least 1000 nM and 42%.
Turning to `CC[C@H](C)[C@H](NC(=O)[C@@H](NC(=O)[C@H](CC(=O)O)NC(=O)[C@H](CC(C)C)NC(=O)[C@H](CC(C)C)NC(=O)[C@H](CC(C)C)NC(=O)[C@H](CCCNC(=N)N)NC(=O)[C@H](CC(N)=O)NC(=O)[C@H](CC(N)=O)NC(=O)[C@H](C)NC(=O)[C@H](C)NC(=O)[C@H](CCC(N)=O)NC(=O)[C@H](CCC(N)=O)NC(=O)[C@H](CCCCN)NC(=O)[C@H](CCC(=O)O)NC(=O)[C@H](CCCCN)NC(=O)[C@H](CCC(=O)O)NC(=O)[C@H](CCC(N)=O)NC(=O)[C@H](CCCCN)NC(=O)[C@H](CCC(=O)O)NC(=O)[C@@H](NC(=O)[C@H](CCC(=O)O)NC(=O)[C@@H](NC(=O)[C@H](CCSC)NC(=O)[C@H](CCCCN)NC(=O)[C@H](CCCNC(=N)N)NC(=O)[C@H](CC(C)C)NC(=O)[C@H](CC(C)C)NC(=O)[C@H](Cc1c[nH]cn1)NC(=O)[C@H](CC(C)C)NC(=O)[C@@H]1CCCN1C(=O)[C@H](CC(C)C)NC(=O)[C@H](CC(=O)O)NC(=O)[C@@H](NC(=O)[C@H](CO)NC(=O)[C@@H](NC(=O)[C@@H]1CCCN1C(=O)[C@@H]1CCCN1C(=O)CNC(=O)[C@@H]1CCC(=O)N1)[C@@H](C)CC)[C@@H](C)CC)[C@@H](C)CC)[C@@H](C)CC)[C@@H](C)O)C(N)=O` [compound 83], in test [1], the EC50 is 1.91 nM and the Emax amounted to 81%. Besides, in test [2], the EC50 came to 52.2 nM and the Emax was determined as 96%.
Regarding `CC[C@H](C)[C@H](NC(=O)[C@H](CCC(=O)O)NC(=O)[C@@H](NC(=O)[C@H](CCSC)NC(=O)[C@H](CCCCN)NC(=O)[C@H](CCCNC(=N)N)NC(=O)[C@H](CC(C)C)NC(=O)[C@H](CC(C)C)NC(=O)[C@H](CCC(N)=O)NC(=O)[C@H](Cc1ccccc1)NC(=O)[C@@H]1CCCN1C(=O)[C@H](CC(C)C)NC(=O)[C@H](CC(=O)O)NC(=O)[C@@H](NC(=O)[C@H](CO)NC(=O)[C@@H](NC(=O)[C@@H]1CCCN1C(=O)[C@@H]1CCCN1C(=O)CNC(=O)[C@@H]1CCC(=O)N1)[C@@H](C)CC)[C@@H](C)CC)[C@@H](C)CC)C(=O)N[C@@H](CCC(=O)O)C(=O)N[C@@H](CCCCN)C(=O)N[C@@H](CCC(N)=O)C(=O)N[C@@H](CCC(=O)O)C(=O)N[C@@H](CCCCN)C(=O)N[C@@H](CCC(=O)O)C(=O)N[C@@H](CCCCN)C(=O)N[C@@H](CCC(N)=O)C(=O)N[C@@H](CCC(N)=O)C(=O)N[C@@H](C)C(=O)N[C@H](C(=O)N[C@H](C(=O)N[C@@H](CC(N)=O)C(=O)N[C@@H](CCCNC(=N)N)C(=O)N[C@@H](CC(C)C)C(=O)N[C@@H](CC(C)C)C(=O)N[C@@H](CC(C)C)C(=O)N[C@@H](C)C(=O)N[C@H](C(=O)N[C@H](C(N)=O)C(C)C)[C@@H](C)O)[C@@H](C)O)[C@@H](C)O` [compound 17], the Emax in test [1] was 96%; in test [2], 98%.
Take `CC[C@H](C)[C@H](NC(=O)[C@H](CCC(=O)O)NC(=O)[C@@H](NC(=O)[C@H](CCSC)NC(=O)[C@H](CCCCN)NC(=O)[C@H](CCCNC(=N)N)NC(=O)[C@H](CC(C)C)NC(=O)[C@H](CC(C)C)NC(=O)[C@H](Cc1ccc(O)cc1)NC(=O)[C@H](CC(C)C)NC(=O)[C@@H]1CCCN1C(=O)[C@H](CC(C)C)NC(=O)[C@H](CC(=O)O)NC(=O)[C@@H](NC(=O)[C@H](CO)NC(=O)[C@@H](NC(=O)[C@@H]1CCCN1C(=O)[C@@H]1CCCN1C(=O)CNC(=O)[C@@H]1CCC(=O)N1)[C@@H](C)CC)[C@@H](C)CC)[C@@H](C)CC)C(=O)N[C@@H](CCC(=O)O)C(=O)N[C@@H](CCCCN)C(=O)N[C@@H](CCC(N)=O)C(=O)N[C@@H](CCC(=O)O)C(=O)N[C@@H](CCCCN)C(=O)N[C@@H](CCC(=O)O)C(=O)N[C@@H](CCCCN)C(=O)N[C@@H](CCC(N)=O)C(=O)N[C@@H](CCC(N)=O)C(=O)N[C@@H](C)C(=O)N[C@@H](C)C(=O)N[C@@H](CC(N)=O)C(=O)N[C@@H](CC(N)=O)C(=O)N[C@@H](CCCNC(=N)N)C(=O)N[C@@H](CC(C)C)C(=O)N[C@@H](CC(C)C)C(=O)N[C@@H](CC(C)C)C(=O)N[C@@H](CC(=O)O)C(=O)N[C@H](C(N)=O)[C@@H](C)O` [compound 81]: the Emax was 73% in test [1] and 81% in test [2].
As to `CC[C@H](C)[C@H](NC(=O)[C@@H](NC(=O)[C@H](CC(=O)O)NC(=O)[C@H](CC(C)C)NC(=O)[C@H](CC(C)C)NC(=O)[C@H](CC(C)C)NC(=O)[C@H](CCCNC(=N)N)NC(=O)[C@H](CC(N)=O)NC(=O)[C@H](CC(N)=O)NC(=O)[C@H](C)NC(=O)[C@H](C)NC(=O)[C@H](CCC(N)=O)NC(=O)[C@H](CCC(N)=O)NC(=O)[C@H](CCCCN)NC(=O)[C@H](CCC(=O)O)NC(=O)[C@H](CCCCN)NC(=O)[C@H](CCC(=O)O)NC(=O)[C@H](CCC(N)=O)NC(=O)[C@H](CCCCN)NC(=O)[C@H](CCC(=O)O)NC(=O)[C@@H](NC(=O)[C@H](CCC(=O)O)NC(=O)[C@@H](NC(=O)[C@H](CCSC)NC(=O)[C@H](CCCCN)NC(=O)[C@H](CCCNC(=N)N)NC(=O)[C@H](CC(C)C)NC(=O)[C@H](CC(C)C)NC(=O)[C@H](Cc1ccc(O)cc1)NC(=O)[C@H](CC(=O)O)NC(=O)[C@@H]1CCCN1C(=O)[C@H](CC(C)C)NC(=O)[C@H](CC(=O)O)NC(=O)[C@@H](NC(=O)[C@H](CO)NC(=O)[C@@H](NC(=O)[C@@H]1CCCN1C(=O)[C@@H]1CCCN1C(=O)CNC(=O)[C@@H]1CCC(=O)N1)[C@@H](C)CC)[C@@H](C)CC)[C@@H](C)CC)[C@@H](C)CC)[C@@H](C)O)C(N)=O` [compound 54], the Emax in test [1] stood at 11%; in test [2], 10%.
